Protein sequences, listed by entry. Tags and fused reporters are not part of them.
UniProt P23977, whole entry: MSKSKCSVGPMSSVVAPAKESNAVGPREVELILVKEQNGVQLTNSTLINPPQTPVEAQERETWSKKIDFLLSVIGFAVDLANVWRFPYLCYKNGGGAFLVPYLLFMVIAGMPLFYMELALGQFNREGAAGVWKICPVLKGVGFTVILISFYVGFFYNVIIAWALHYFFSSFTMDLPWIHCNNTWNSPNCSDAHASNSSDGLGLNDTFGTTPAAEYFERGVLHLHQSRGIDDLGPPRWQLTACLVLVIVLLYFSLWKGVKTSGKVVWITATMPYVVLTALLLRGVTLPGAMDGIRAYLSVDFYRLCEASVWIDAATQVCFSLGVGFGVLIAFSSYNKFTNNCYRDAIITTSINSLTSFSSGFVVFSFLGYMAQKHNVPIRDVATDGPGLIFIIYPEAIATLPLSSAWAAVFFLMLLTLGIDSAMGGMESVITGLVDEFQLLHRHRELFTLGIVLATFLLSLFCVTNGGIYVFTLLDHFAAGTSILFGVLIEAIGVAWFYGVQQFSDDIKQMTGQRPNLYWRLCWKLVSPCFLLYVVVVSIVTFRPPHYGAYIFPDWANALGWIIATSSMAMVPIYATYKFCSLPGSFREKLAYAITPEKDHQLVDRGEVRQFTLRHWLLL

According to PMC7316143 (Drug testing and analysis, 2018):

Tests used:
DAT [1] = target: T1, DAT (Rattus norvegicus, UniProt P23977); test: [3H]dopamine uptake inhibition at DAT in rat brain synaptosomes; format: biochemical; conditions: (DAT IC50^-1)/(SERT IC50^-1); higher value indicates greater DAT selectivity
DAT [2] = target: T1, DAT; test: [3H]MPP+ release at DAT in rat brain synaptosomes; format: biochemical; conditions: (DAT EC50^-1)/(SERT EC50^-1); higher value indicates greater DAT selectivity

## CC1NCCOC1c1ccccc1 (centres unmarked) [Phenmetrazine, 3-methyl-2-phenylmorpholine, reference compound]
DAT [1]
  DAT/SERT ratio (uptake inhibition): 3.8
DAT [2]
  DAT/SERT ratio (release): >142.0
